PubChem AID 2061109: pyroptosis screen in mouse bone marrow macrophages, one dose (5 µM).
Target pathway: NLRP3 inflammasome, triggered by LPS and nigericin. Dead cells counted by propidium iodide.
Higher is more protection: 100% equals untreated cells, 0% the stimulated control, negative values set to 0. Active call (*): above 70%. Part of the library is listed.

| SMILES | inhibition [%] |
|---|---|
| O=C(NCc1ccccc1)c1csc(Nc2ccncn2)n1 | 50.6 |
| NC(=O)[C@@H]1CC[C@H](c2ccc(OCc3ccccc3F)cc2)N1 | 0.0 |
| CNCc1cc(-c2ccccc2F)n(S(=O)(=O)c2cccnc2)c1.O=C(O)/C=C/C(=O)O | 0.0 |
| COC(=O)c1ccc(NCc2cc(O)ccc2O)cc1 | 51.1 |
| Cc1nc2cc(F)c(F)cc2n1-c1cncc(Nc2ccc(C(F)(F)F)cc2)n1 | 0.0 |
| CC(C)(C)c1ccc(CN2CCN(C(c3ccccc3)c3ccc(Cl)cc3)CC2)cc1.Cl.Cl | 12.5 |
| CN=C(NC#N)Nc1ccc(C2=NNC(=O)CC2C)cc1 | 31.7 |
| Cn1ccc(-c2cc(Cl)c(Cl)c3[nH]c4c(c23)CN(C(=O)CO)CC4)n1 | 0.0 |
| C#C[C@]1(CO)O[C@@H](n2cnc3c(N)nc(F)nc32)C[C@@H]1O | 62.3 |
| CN1CCN(C(c2ccccc2)c2ccc(Cl)cc2)CC1 | 0.0 |
| O=C(O)c1cccc(Nc2ccc(C(F)(F)F)cc2)c1 | 0.0 |
| CCC(=O)N1CCC(NC(=O)Nc2ccc(OC(F)(F)F)cc2)CC1 | 0.0 |
| COc1c(N2CCNC(C)C2)c(F)cc2c(=O)c(C(=O)O)cn(C3CC3)c12.Cl | 59.8 |
| CC(=O)NC[C@H]1CN(c2ccc(N3CCN(C(=O)CO)CC3)c(F)c2)C(=O)O1 | 47.3 |
| CC1=CC(=O)CC(C)(C)[C@@]1(O)/C=C/C(C)=C\C(=O)O | 67.2 |
| CC1(C(=O)N[C@@H](CCCCCCCc2ccc3c(n2)NCCC3)C(=O)O)CCOCC1 | 0.0 |
| CNCc1ccccc1Sc1cccc2ccccc12.Cl | 33.7 |
| CCOC(=O)/C=C/C(=O)N(CC(N)=O)NC(=O)[C@H](C)NC(=O)[C@H](C)NC(=O)OCc1ccccc1 | 0.0 |
| CCOC(=O)c1cc2cc(-c3cc(C(=O)NCc4ccc(C(=O)O)cc4)nn3C)ccc2[nH]1 | 33.8 |
| CC[C@H](C)[C@@H]([C@@H](CC(=O)N1CCC[C@H]1[C@H](OC)[C@@H](C)C(=O)N[C@H](C)[C@@H](O)c1ccccc1)OC)N(C)C(=O)[C@@H](NC(=O)[C@@H](NC)C(C)C)C(C)C | 59.5 |
| CCOc1ccc(Nc2ccc(C(=C3C=CC(=[N+](CC)Cc4cccc(S(=O)(=O)[O-])c4)C=C3C)c3ccc(N(CC)Cc4cccc(S(=O)(=O)[O-])c4)cc3C)cc2)cc1.[Na+] | 46.9 |
| CS(=O)(=O)NC(=O)C(c1ccc(OCc2ccc3ccccc3n2)cc1)C1CCCCCC1 | 0.0 |
| Clc1ccc(C2(c3ccc(-c4cn[nH]c4)cc3)CCNCC2)cc1 | 0.0 |
| Cn1cncc1[C@](N)(c1ccc(Cl)cc1)c1ccc2c(c1)c(-c1cccc(Cl)c1)cc(=O)n2C | 4.9 |
| CC(=O)N[C@H]1[C@@H](OC(C)C)O[C@H](COC(C)=O)[C@@H](OC(C)=O)[C@@H]1OC(C)=O | 68.1 |
| COC(=O)C1=C(C#N)NC(C)=C(C(=O)OC(C)C)C1c1cccc([N+](=O)[O-])c1 | 4.3 |
| O=C(O)c1cc(=O)c2ccc(Cl)cc2[nH]1 | 76.7* |
| Cc1cncc(-c2nc(NCCc3c[nH]c4ccccc34)c3ncn(C(C)C)c3n2)c1 | 0.0 |
| O=C(c1ccccc1O)c1[nH]c(Cl)c(Cl)c1-n1c(C(=O)c2ccccc2O)cc(Cl)c1Cl | 0.0 |
| CCCc1cc(-c2nc(-c3ccc(C)cc3)cs2)ccn1 | 9.2 |
| NC1(C(=O)O)CCCC1 | 75.9* |
| O=C(OC12CC3CC(CC(C3)C1)C2)c1ccc(NCc2cc(O)ccc2O)cc1 | 50.7 |
| COc1ccc(C2=NC(c3ccc(Cl)cc3)C(c3ccc(Cl)cc3)N2C(=O)N2CCNC(=O)C2)c(OC(C)C)c1 | 10.8 |
| O=C(Nc1nnc(-c2ccc(F)cc2)o1)N1CCc2ccccc2C1 | 9.2 |
| c1cc(-c2nc3ccc(-c4ccc5nc(-c6ccncc6)[nH]c5c4)cc3[nH]2)ccn1 | 50.3 |
| CCNCc1nc2c(N)nc3ccccc3c2n1CC(C)(C)O | 66.6 |
| Cl.N#Cc1ncc(N2C(=O)C3(CCC3)N(c3ccc(OC4CCNCC4)nc3)C2=S)cc1C(F)(F)F | 33.3 |
| COc1ccc(-c2cc(=O)c3c(O)cc(O)c(-c4cc(-c5cc(=O)c6c(O)cc(OC)cc6o5)ccc4OC)c3o2)cc1 | 62.0 |
| CC(=O)O.CSCC[C@H](NC(=O)[C@@H]1CCCN1C(=O)[C@@H](N)C(C)C)C(=O)N[C@@H](CC(C)C)C(=O)N[C@@H](CCCCN)C(=O)O | 23.5 |
| N#CCCN(C(=O)CCl)c1ccc2c(c1)OCCO2 | 0.0 |
| CC(C)OP(=O)(OC(C)C)C(Cc1cc(C(C)(C)C)c(O)c(C(C)(C)C)c1)P(=O)(OC(C)C)OC(C)C | 15.5 |
| COc1ccccc1/C=C/C(=O)O | 62.2 |
| CNC(=O)c1ccc(Nc2ncc(C(F)(F)F)c(NCc3nccnc3N(C)S(C)(=O)=O)n2)cc1.Cl | 25.7 |
| CC(C)=CCC1=CC(=O)c2ccccc2C1=O | 86.8* |
| CN1C/C(=C/c2ccc(B(O)O)cc2)C(=O)/C(=C\c2ccc(B(O)O)cc2)C1 | 0.2 |
| COP(=O)(NC(C)=O)SC | 0.0 |
| CN(C)CC(=O)Nc1ccc2[nH]c(=O)c3ccccc3c2c1.Cl | 0.0 |
| C=CC(=O)Nc1cccc(-c2c(-c3ccccc3)oc3ncnc(N[C@H](CO)c4ccccc4)c23)c1 | 0.0 |
| CNC(=O)c1ccc2c(c1)ncn2-c1ccc(CC(=O)OC(C)(C)C)cc1 | 0.0 |
| COc1cc(F)c(C(C)C)cc1-c1ccc(C(F)(F)F)cc1CN1C(=O)O[C@H](c2cc(C(F)(F)F)cc(C(F)(F)F)c2)[C@@H]1C | 0.0 |
| CSc1ccc(CN2CCCC(Nc3ccc4[nH]ncc4c3)C2)cc1 | 68.1 |
| CC(C)(O)c1ccccc1CC[C@@H](SCC1(CC(=O)O)CC1)c1cccc(/C=C/c2ccc3ccc(Cl)cc3n2)c1 | 8.1 |
| CCCCCC/C=C\CCCCCCCCCc1cccc(O)c1C(=O)O | 23.7 |
| NC(=O)[C@@H]1CC[C@@H]2CN1C(=O)N2OS(=O)(=O)[O-].[Na+] | 81.7* |
| CC(=O)O.CC(=O)O.CCC(C)CC(C)CCCCCCCCC(=O)N[C@H]1C[C@@H](O)[C@@H](NCCN)NC(=O)[C@@H]2[C@@H](O)CCN2C(=O)[C@H]([C@H](O)CCN)NC(=O)[C@H]([C@H](O)[C@@H](O)c2ccc(O)cc2)NC(=O)[C@@H]2C[C@@H](O)CN2C(=O)[C@H]([C@@H](C)O)NC1=O | 30.5 |
| Br.CCCc1cc(-c2nc(-c3ccc(C)cc3)cs2)ccn1 | 71.8* |
| O=C(CS(=O)(=O)c1ccccc1)c1ccc(C(F)(F)F)cc1 | 0.0 |
| O=c1[nH]c(=O)c2[nH]cnc2[nH]1 | 0.0 |
| CC1(C)C(=O)N(c2ccc(C#N)c(C(F)(F)F)c2)C(=S)N1c1ccc(C(=O)O)c(F)c1 | 64.4 |
| COC(=O)c1cc(OC)c2c(c1-c1c(CO)cc(OC)c3c1OCO3)OCO2 | 65.5 |
| Cc1nnn(C)c1-c1cnc2c3ccc(C(C)(C)O)cc3n([C@H](c3ccccc3)C3CCOCC3)c2c1 | 15.7 |
| CC1(N)CCN(c2cccnc2NC(=O)c2nc(-c3ncccc3C(F)(F)F)cnc2N)CC1 | 33.6 |
| CS(=O)(=O)c1cccc(C[C@H](NC(=O)c2c(Cl)cc3c(c2Cl)CCN(C(=O)c2ccc4ccoc4c2)C3)C(=O)O)c1 | 0.0 |
| N=C(N)c1ccc(CNC(=O)[C@@H]2CCN2C(=O)[C@H](NCC(=O)O)C2CCCCC2)cc1 | 14.6 |
| Cc1c(CN2CCC(Nc3ncnc4sc(CC(F)(F)F)cc34)CC2)ccc2c1cc(C#N)n2Cc1cn[nH]c1 | 0.0 |
| COc1ccc2cccc(CCNC(C)=O)c2c1 | 0.0 |
| Cl[TeH]1(Cl)(Cl)OCCO1.N | 79.6* |
| CCC(=O)OCC(=O)[C@@]1(OC(=O)CC)[C@@H](C)C[C@H]2[C@@H]3CCC4=CC(=O)C=C[C@]4(C)[C@@]3(Cl)[C@@H](O)C[C@@]21C | 0.0 |
| c1ccc2c(CCNc3ccc(Nc4ccncc4)cc3)c[nH]c2c1 | 0.0 |
| CN1CCN(C(=O)/C=C2/c3ccccc3NC(=O)c3ccccc32)CC1 | 54.1 |
| Cc1cc(C)c(S(=O)(=O)n2cc(C)cc2C)c(C)c1 | 68.0 |
| CCN[C@H]1C[C@H](C)S(=O)(=O)c2sc(S(N)(=O)=O)cc21.Cl | 35.1 |
| C=C(C)C(=O)O[C@H]1[C@@H]2[C@H](C)C(=O)O[C@@H]2C[C@@H](C)[C@@H]2C=CC(=O)[C@]21C | 25.7 |
| CC(C)(N)c1ccc(-c2nc3ccccc3nc2-c2ccccc2)cc1.Cl | 0.0 |
| O=C(Nc1ccc(I)cc1)c1ccc([N+](=O)[O-])o1 | 76.5* |
| CC(C)c1ccc(C=O)cc1 | 0.0 |
| O=c1c(O)cccc2cc(O)c(O)c(O)c12 | 39.4 |

The first 9 compounds once more:

SMILES,inhibition [%]
O=C(NCc1ccccc1)c1csc(Nc2ccncn2)n1,50.6
NC(=O)[C@@H]1CC[C@H](c2ccc(OCc3ccccc3F)cc2)N1,0.0
CNCc1cc(-c2ccccc2F)n(S(=O)(=O)c2cccnc2)c1.O=C(O)/C=C/C(=O)O,0.0
COC(=O)c1ccc(NCc2cc(O)ccc2O)cc1,51.1
Cc1nc2cc(F)c(F)cc2n1-c1cncc(Nc2ccc(C(F)(F)F)cc2)n1,0.0
CC(C)(C)c1ccc(CN2CCN(C(c3ccccc3)c3ccc(Cl)cc3)CC2)cc1.Cl.Cl,12.5
CN=C(NC#N)Nc1ccc(C2=NNC(=O)CC2C)cc1,31.7
Cn1ccc(-c2cc(Cl)c(Cl)c3[nH]c4c(c23)CN(C(=O)CO)CC4)n1,0.0
C#C[C@]1(CO)O[C@@H](n2cnc3c(N)nc(F)nc32)C[C@@H]1O,62.3